Drawing on patent publication US8003632B2, “Cholinesterase inhibitors for treating inflammation” (priority 2004, dated 2011), this text covers mice survived for one molecule.

Molecules are shown by their SMILES.

The subject of this experiment is murine CLP model of sepsis. Put plainly: Survival in murine CLP model of sepsis. Type of experiment: in vivo, mice. To be noted: Day 6; 1.25 ug/kg i.p. from 24 h after CLP for 3 days; vehicle about 50%.

On to `C/C=C1\[C@H]2C=C(C)C[C@]1(N)c1ccc(=O)[nH]c1C2`, for which the mice survived result was “about 80%”.
